Data from patent US20230227484A1, “PYRIMIDINE COMPOUND AS AXL INHIBITOR” (NANJING CHIA TAI TIANQING PHARMACEUTICAL CO., LTD., priority 2020, published 2023).

The chains behind the UniProt entries cited, without tags or fusion partners. Residues count along the entry.
UniProt P30530, 473-894 limits assumed: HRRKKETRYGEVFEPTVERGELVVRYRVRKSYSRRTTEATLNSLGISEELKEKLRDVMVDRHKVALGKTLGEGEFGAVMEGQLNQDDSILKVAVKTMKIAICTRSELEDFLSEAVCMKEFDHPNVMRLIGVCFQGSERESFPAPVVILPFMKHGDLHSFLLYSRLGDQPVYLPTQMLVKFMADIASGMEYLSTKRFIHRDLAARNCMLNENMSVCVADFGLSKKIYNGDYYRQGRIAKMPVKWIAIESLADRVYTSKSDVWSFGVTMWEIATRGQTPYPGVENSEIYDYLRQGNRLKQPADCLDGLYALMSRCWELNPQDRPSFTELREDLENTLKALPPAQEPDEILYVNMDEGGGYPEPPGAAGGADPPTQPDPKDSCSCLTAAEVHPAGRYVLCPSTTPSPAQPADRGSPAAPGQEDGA

Tests used:
AXL kinase = AXL kinase (Homo sapiens, UniProt P30530); assay: Inhibitory activity of compound against AXL kinase (HTRF KinEASE); type: biochemical; settings: read-out: Inhibitory activity IC50 (nM) against AXL; AXL enzyme (Carna, 08-107), ATP 15 μM; "<" means below detection limit of the test
[1] = tested on: MV-4-11 (human myeloid monocytic leukemia cell line); assay: Proliferation inhibition activity of compounds to MV-4-11 cells (CellTiter-Glo); settings: read-out: IC50 (MV4-11), MV4-11 cells, 72 h dosing

| SMILES | IC50 (AXL kinase) | IC50 [1] |
| --- | --- | --- |
| CP(C)(=O)c1cc(F)ccc1Nc1nc(Nc2ccc3c(c2)CCC(N2C4COCC2C4)CC3)ncc1Cl (single isomer, unassigned) [Example 91 Isomer 91-1] | 1.56 nM | 2.25 nM |
| Cc1ccc(Nc2nc(Nc3ccc4c(c3)CC[C@@H](N3CC[C@H](F)C3)CC4)ncc2Cl)c(P(C)(C)=O)c1 (single isomer, unassigned) | 1.87 nM | 3.59 nM |
| CP(C)(=O)c1cc(F)ccc1Nc1nc(Nc2ccc3c(c2)CCC(N2CCC4(CC4)C2)CC3)ncc1Cl (single isomer, unassigned) [Example 62 Isomer 62-2] | 1.12 nM | 3.5 nM |
| Cc1ccc(Nc2nc(Nc3ccc4c(c3)CCC(N3C5CCC3COC5)CC4)ncc2Cl)c(P(C)(C)=O)c1 (single isomer, unassigned) [Example 90 Isomer 90-1] | 0.57 nM | 2.94 nM |
| CP(C)(=O)c1cc(F)ccc1Nc1nc(Nc2ccc3c(c2)CCC(N2C4CCC2COC4)CC3)ncc1Cl (single isomer, unassigned) [Example 92 Isomer 92-1] | 1.42 nM | 2.01 nM |
| Cc1ccc(Nc2nc(Nc3ccc4c(c3)CCC(N3CC5CC5C3)CC4)ncc2Cl)c(P(C)(C)=O)c1 (single isomer, unassigned) [Example 71 Isomer 71-1] | 0.26 nM | 7.74 nM |
| CP(C)(=O)c1cc(OC(F)(F)F)ccc1Nc1nc(Nc2ccc3c(c2)CCC(N2C[C@@H]4C[C@H]2CO4)CC3)ncc1Cl (single isomer, unassigned) [Example 104 Isomer 104-1] | 1.33 nM | 7.21 nM |
| CP(C)(=O)c1cc(Cl)ccc1Nc1nc(Nc2ccc3c(c2)CCC(N2C4CCC2COC4)CC3)ncc1Cl (single isomer, unassigned) [Example 94 Isomer 94-1] | 0.68 nM | 2.42 nM |
| Cc1ccc(Nc2nc(Nc3ccc4c(c3)CC[C@@H](N3CC[C@H](O)C3)CC4)ncc2Cl)c(P(C)(C)=O)c1 (single isomer, unassigned) | 4.11 nM | 4.36 nM |
| CP(C)(=O)c1cc(Cl)ccc1Nc1nc(Nc2ccc3c(c2)CCC(N2C4COCC2C4)CC3)ncc1Cl (single isomer, unassigned) [Example 93 Isomer 93-1] | 1.08 nM | 2.65 nM |
| CP(C)(=O)c1cc(Cl)ccc1Nc1nc(Nc2ccc3c(c2)CCC(N2C4COCC2C4)CC3)ncc1Cl (single isomer, unassigned) [Example 93 Isomer 93-2] | 14.9 nM | – |
| Cc1ccc(Nc2nc(Nc3ccc4c(c3)CC[C@@H](N3CC[C@H](C#N)C3)CC4)ncc2Cl)c(P(C)(C)=O)c1 (single isomer, unassigned) | 4.01 nM | 6.88 nM |
| Cc1ccc(Nc2nc(Nc3ccc4c(c3)CCC(N3C5COCC3C5)CC4)ncc2Cl)c(P(C)(C)=O)c1 (single isomer, unassigned) [Example 89 Isomer 89-2] | 27.4 nM | – |
| Cc1ccc(Nc2nc(Nc3ccc4c(c3)CCC(N3C5CCC3COC5)CC4)ncc2Cl)c(P(C)(C)=O)c1 (single isomer, unassigned) [Example 90 Isomer 90-2] | 45.7 nM | – |
| CP(C)(=O)c1cc(F)ccc1Nc1nc(Nc2ccc3c(c2)CCC(N2CC4CC2CO4)CC3)ncc1Cl (single isomer, unassigned) [Example 63 Isomer 63-2] | 61.7 nM | – |
| CO[C@@H]1CCN([C@@H]2CCc3ccc(Nc4ncc(Cl)c(Nc5ccc(C)cc5P(C)(C)=O)n4)cc3CC2)C1 (single isomer, unassigned) | 47.4 nM | – |
| CP(C)(=O)c1cc(F)ccc1Nc1nc(Nc2ccc3c(c2)CCC(N2CC4CC4C2)CC3)ncc1Cl (single isomer, unassigned) [Example 59 Isomer 59-2] | 86.5 nM | – |
| CP(C)(=O)c1cc(F)ccc1Nc1nc(Nc2ccc3c(c2)CCC(N2CC4CC2CO4)CC3)ncc1Cl (single isomer, unassigned) [Example 63 Isomer 63-4] | 57 nM | – |

| SMILES | IC50 (AXL kinase) | IC50 [1] |
| --- | --- | --- |
| Cc1ccc(Nc2nc(Nc3ccc4c(c3)CC[C@H](N3CC[C@@H](C#N)C3)CC4)ncc2Cl)c(P(C)(C)=O)c1 (single isomer, unassigned) | 38.2 nM | – |
| Cc1ccc(Nc2nc(Nc3ccc4c(c3)CC[C@H](N3CC[C@@H](O)C3)CC4)ncc2Cl)c(P(C)(C)=O)c1 (single isomer, unassigned) | 74.3 nM | – |
| Cc1ccc(Nc2nc(Nc3ccc4c(c3)CC[C@H](N3CC[C@H](C#N)C3)CC4)ncc2Cl)c(P(C)(C)=O)c1 (single isomer, unassigned) | 64.2 nM | – |
| Cc1ccc(Nc2nc(Nc3ccc4c(c3)CC[C@H](N3CC[C@H](F)C3)CC4)ncc2Cl)c(P(C)(C)=O)c1 (single isomer, unassigned) | 63.4 nM | – |
| CP(C)(=O)c1cc(Cl)ccc1Nc1nc(Nc2ccc3c(c2)CCC(N2C4CCC2COC4)CC3)ncc1Cl (single isomer, unassigned) [Example 94 Isomer 94-2] | 27.6 nM | – |
| Cc1ccc(Nc2nc(Nc3ccc4c(c3)CC[C@H](N3CCC5(COC5)C3)CC4)ncc2Cl)c(P(C)(C)=O)c1 (single isomer, unassigned) | 38.2 nM | – |
| CP(C)(=O)c1cc(C#N)ccc1Nc1nc(Nc2ccc3c(c2)CCC(N2C4CCC2COC4)CC3)ncc1Cl (single isomer, unassigned) [Example 88 Isomer 88-1] | 39.4 nM | – |
| CP(C)(=O)c1cc(F)ccc1Nc1nc(Nc2ccc3c(c2)CCC(N2CCC4(CC4)C2)CC3)ncc1Cl (single isomer, unassigned) [Example 62 Isomer 62-1] | 49 nM | – |
| Cc1ccc(Nc2nc(Nc3ccc4c(c3)CCC(N3CC5CC3CO5)CC4)ncc2Cl)c(P(C)(C)=O)c1 (single isomer, unassigned) [Example 72 Isomer 72-2] | 1 nM | – |
| CP(C)(=O)c1cc(F)ccc1Nc1nc(Nc2ccc3c(c2)CCC(N2C4COCC2C4)CC3)ncc1Cl (single isomer, unassigned) [Example 91 Isomer 91-2] | 57.4 nM | – |
| CP(C)(=O)c1cc(OC(F)F)ccc1Nc1nc(Nc2ccc3c(c2)CCC(N2C4CCC2COC4)CC3)ncc1Cl (single isomer, unassigned) [Example 85 Isomer 85-2] | 33 nM | – |
| CP(C)(=O)c1cc(F)ccc1Nc1nc(Nc2ccc3c(c2)CCC(N2C4CCC2COC4)CC3)ncc1Cl (single isomer, unassigned) [Example 92 Isomer 92-2] | 38.2 nM | – |
| CP(C)(=O)c1cc(OC2CC2)ccc1Nc1nc(Nc2ccc3c(c2)CC[C@H](N2CC4CC2C4)CC3)ncc1Cl (single isomer, unassigned) | 38.1 nM | – |
| CP(C)(=O)c1cc(OC(F)(F)F)ccc1Nc1nc(Nc2ccc3c(c2)CCC(N2C4COCC2C4)CC3)ncc1Cl (single isomer, unassigned) [Example 100 Isomer 100-2] | 40 nM | – |
| CP(C)(=O)c1cc(F)ccc1Nc1nc(Nc2ccc3c(c2)CCC(N2CC4CC2CO4)CC3)ncc1Cl (single isomer, unassigned) [Example 63 Isomer 63-3] | 2.46 nM | – |
| Cc1ccc(Nc2nc(Nc3ccc4c(c3)CCC(N3CC5CC3CO5)CC4)ncc2Cl)c(P(C)(C)=O)c1 (single isomer, unassigned) [Example 72 Isomer 72-1] | 1.02 nM | – |
| CP(C)(=O)c1cc(C#N)ccc1Nc1nc(Nc2ccc3c(c2)CCC(N2C4COCC2C4)CC3)ncc1Cl (single isomer, unassigned) [Example 87 Isomer 87-2] | 36.5 nM | – |
| Cc1ccc(Nc2nc(Nc3ccc4c(c3)CCC(N3CC5CC5C3)CC4)ncc2Cl)c(P(C)(C)=O)c1 (single isomer, unassigned) [Example 71 Isomer 71-2] | 26.7 nM | – |
